An excerpt weighted towards active compounds, which were near 13% of everything screened.
G9a inh: blocks human histone lysine methyltransferase G9a | Q96KQ7 | G9a H3K9 monomethylation, AlphaScreen, 2 h | Potency, µM (top dose mostly 102 µM), for the others: at the highest dose activity, negative = inhibition, usual class: inhibitors | hit rate 8.8% among 350,000; note: potency is the fitted concentration of half-maximal effect; % is set by controls: 0 for no effect and ±100 for the full control effect; nearly all actives have a fitted effect of over 75% in size
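Step 1: enzyme (final 20 nM) with compound, 15 min RT. Step 2: substrate peptide 500 nM and SAM 20 uM, 2 h RT. Step 3: anti-H3K9me1 antibody and AlphaScreen beads, 10 min, then plate read.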
Sfp PPTase inh: qHTS Assay for Inhibitors of Bacillus subtilis Sfp phosphopantetheinyl transferase (PPTase); actives 3.5% (n = 310,000); AID 1490, 2009; Biochemical Sfp PPTase activity, qHTS; Potency, µM, for inactives: max response, negative = inhibition, usual class: inhibitors; 4'-phosphopantetheinyl transferase ffp (Bacillus subtilis), Q9F4F7; active means well fitted inhibition curve with a large enough effect; inconclusive means small, poorly fitted or top-dose-only effect, or another doubt; inactive means no such curve, though single readings can be large or run the other way;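 further: the enzyme is Sfp with the accession as filed and its product quenches rhodamine fluorescence; potency means the concentration at half of the fitted maximal effect; 0% = enzyme reaction without inhibitor and -100% = no enzyme wells; top concentration of the series not given in the record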
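After 15 min at room temperature with compound, 15 nM Sfp received 5 uM rhodamine-CoA plus 12.5 uM BHQ-2-ybbR (50 mM Hepes pH 7.6, 10 mM MgCl2). Rate came from the fluorescence difference over 30 min, ex 525/em 598 nm.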
ALDH1A1 block: inhibitors of human aldehyde dehydrogenase 1A1; P00352; Purified ALDH1A1, NADH fluorescence, propionaldehyde substrate; Potency, µM (doses to about 75.3 µM), inactives show top-dose activity, negative = inhibition, most hits filed as inhibitors; hit rate 7.3% among 220,000; AID 1030; active = well fitted inhibition curve with a large enough effect, not every such curve was filed as active; inconclusive = small, poorly fitted or top-dose-only effect, or another doubt; inactive = no such curve, though single readings can be large or run the other way;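 note: potency is the fitted concentration of half-maximal effect; plate controls were no enzyme wells and a reference inhibitor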
miR-21 reporter: raises the signal of a miR-21 reporter; Potency, µM (doses to about 38.3 µM), inactives show top-dose reporter change, positive = more light; HeLa miR-21 FLuc reporter, luciferase, 48 h; AID 2288; 340,000 tested, under 10 active; active = well fitted rising curve with a large enough effect; inconclusive = small, poorly fitted or top-dose-only effect; inactive = no such curve, though single readings can be large or run the other way;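 further: % of control where 0% means no effect; miR-21 action dims this reporter so a rising signal means less miR-21 action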
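Luminescence from a firefly luciferase reporter carrying a miR-21 binding site downstream, stably expressed under a CMV promoter in HeLa cells that make miR-21 endogenously, reports miRNA modulation after 48 h compound exposure up to approximately 40uM final.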
JMJD2E inh: blocks human JMJD2E demethylase activity; B2RXH2; JMJD2E catalytic domain, FDH-coupled NADH fluorescence (FDH is formaldehyde dehydrogenase); Potency, µM (titrated, usually from 57.1 µM), without a hit: top-dose activity change, negative = inhibition, actives largely listed as inhibitors; hit rate 1.6% among 230,000; AID 2147; active = well fitted inhibition curve with a large enough effect, not every such curve was filed as active; inconclusive = small, poorly fitted or top-dose-only effect, or another doubt; inactive = no such curve, though single readings can be large or run the other way;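 note: potency is the fitted concentration of half-maximal effect; 0% = wells with enzyme and -100% = buffer wells without enzyme; nearly all actives have a fitted effect of over 50% in size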
Lamin A splicing: LMNA splicing modulation. AID 1487. Potency, µM (highest dose often 46.1 µM), inactives show at the top dose ratio change, negative = inhibition, usual class: inhibitors. HeLa LMNA splicing GFP/RFP minigene ratio, 48 h. hit rate 0.01% among 200,000; active = well fitted inhibition curve with a large enough effect in the signal ratio, with a control signal flat, not every such curve was filed as active; inconclusive = small, poorly fitted or top-dose-only effect, or effect the other way, or a change in a side signal; the % refers to the signal ratio; note: potency is the fitted concentration of half-maximal effect; % is set by controls: 0 for no effect and ±100 for the full control effect
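S3 HeLa cells stably expressing lamin A-EGFP splicing minigene plus DsRed2, 600 cells/well, 48 h compound exposure at 37C. Laser-scanning cytometry; analysed as GFP (500-530 nm)/RFP (575-640 nm) total intensity ratio; 0.5% DMSO vehicle.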
The depositor's hits bear a star; [ ] = remark or other dose. Unless noted, calls come from the whole dose curve; as a rule, active = well fitted curve in the direction sought with a large enough effect; inconclusive = small, poorly fitted or top-dose-only effect, or another doubt; inactive = no such curve, though single readings can be large; an effect the other way counts as inactive or inconclusive.

For CCCCC[n+]1ccn(-c2nc3ccccc3nc2[N-]S(=O)(=O)c2ccc(C)cc2)c1 the results were G9a inh 5%, Sfp PPTase inh 56µM*, ALDH1A1 block inconclusive, miR-21 reporter -3%, JMJD2E inh inconclusive and Lamin A splicing 1%.
Screening CCCC[n+]1ccn(-c2nc3ccccc3nc2[N-]S(=O)(=O)c2cccs2)c1 returned G9a inh 25%[59 µM], Sfp PPTase inh 35µM*, miR-21 reporter 14% and JMJD2E inh -5%.
COc1ccc(N2CC(NC(=O)C(=O)c3c[nH]c4ccccc34)CC2=O)cc1 (stereo unspecified) was read as G9a inh 5%[59 µM], miR-21 reporter -1% and Lamin A splicing 9%[46 µM].
For Cn1cc(S(=O)(=O)N2CCCCCC2)cc1C(=O)N1CCN(c2cccc(Cl)c2)CC1 the results were G9a inh 4%[59 µM], miR-21 reporter 16% and Lamin A splicing 5%[46 µM].
Screening CC(=O)c1sc(NC(=O)c2c(F)cccc2F)nc1-c1ccccc1 returned G9a inh -19%, Sfp PPTase inh -4%, ALDH1A1 block 11µM*, miR-21 reporter -3%, JMJD2E inh -28% and Lamin A splicing -4%[9.22 µM].
Screening O=C(CN1CCN(c2ccccn2)CC1)N(c1ccccc1)c1ccc2ccccc2c1 returned G9a inh 50µM*, Sfp PPTase inh -3%, ALDH1A1 block inconclusive, miR-21 reporter -8%, JMJD2E inh -4% and Lamin A splicing inconclusive.
Screening CN(C(=O)N1CCN(c2ccccn2)CC1)c1ccccc1 returned G9a inh -32%[59 µM], Sfp PPTase inh 8%, ALDH1A1 block -13%, miR-21 reporter -1%, JMJD2E inh inconclusive and Lamin A splicing 17%.
Screening O=C(CN1CCOCC1)N(c1ccccc1)c1ccc2ccccc2c1 returned G9a inh 50µM*, Sfp PPTase inh 7%, ALDH1A1 block inconclusive, miR-21 reporter -8%, JMJD2E inh -5% and Lamin A splicing inconclusive.
For Cc1ccccc1-c1nc(CS(=O)(=O)CC(=O)Nc2c(C)cccc2C)c(C)o1 the results were G9a inh 8%[59 µM] and miR-21 reporter 9%.
Screening Cc1nnc(SCC(=O)N(C)c2ccccc2)n1-n1cccc1 returned G9a inh 2%.
Screening CC1=C(C(=O)OC2CCCCC2)C(c2ccc(N(C)C)cc2)NC(=O)N1 (stereo unspecified) returned G9a inh 10%, Sfp PPTase inh 14% and miR-21 reporter -3%.
COC(=O)CCNC(=O)Cc1c(C)n(C(=O)c2ccc(Cl)cc2)c2ccc(OC)cc12 was read as G9a inh 50µM*, Sfp PPTase inh 17% and miR-21 reporter 5%.

Reprinted from the part before: 2 compounds, followed by the next part.
Screening CC1=C(C(=O)OC2CCCCC2)C(c2ccc(N(C)C)cc2)NC(=O)N1 (stereo unspecified) returned G9a inh 10%, Sfp PPTase inh 14% and miR-21 reporter -3%.
COC(=O)CCNC(=O)Cc1c(C)n(C(=O)c2ccc(Cl)cc2)c2ccc(OC)cc12 was read as G9a inh 50µM*, Sfp PPTase inh 17% and miR-21 reporter 5%.
`CCCCC(O)(CCCC)C(=O)NN(C(=O)c1cccnc1Cl)c1ccccc1` gave G9a inh 11%, Sfp PPTase inh 30%, miR-21 reporter 10% and JMJD2E inh 14%.
Screening O=C1NCCCc2c1oc1ccc(O)cc21 returned G9a inh 25%[2.33 µM], Sfp PPTase inh -10%, ALDH1A1 block 8.9µM*, miR-21 reporter 12%, JMJD2E inh -8% and Lamin A splicing inconclusive.
O=C(CN1CCN(Cc2ccccc2)CC1)N1CCCc2c1c(=O)oc1ccc(O)cc21 was read as G9a inh 17%[59 µM], Sfp PPTase inh 11%, ALDH1A1 block 4%, miR-21 reporter 29%, JMJD2E inh -9% and Lamin A splicing inconclusive.
ClCc1csc(N/N=C/c2cccs2)n1 was read as G9a inh inconclusive, Sfp PPTase inh 45µM*, miR-21 reporter -37% and JMJD2E inh inconclusive.
`C(=N/Nc1nccs1)/c1cccnc1` gave G9a inh -37%, Sfp PPTase inh 50µM*, ALDH1A1 block 5%, miR-21 reporter -7% and JMJD2E inh -26%.
Screening Cc1sc(N/N=C/c2cccnc2)nc1-c1ccccc1 returned Sfp PPTase inh -99%, ALDH1A1 block inconclusive, miR-21 reporter -3%, JMJD2E inh -1% and Lamin A splicing inconclusive.

Compound activity deposited in PubChem BioAssay by National Center for Advancing Translational Sciences (NCATS).
